Experimental data: patent US20130052137A1, “PARA AMINO BENZOIC ACID BASED NANOTUBES” (priority 2009, published 2013)

Experiment: Distribution of nanotubes in organs after oral ingestion (confocal fluorescence, Metamorph gray value)
Conditions: dye in yeast paste, third instar larvae

distribution of raw dye in internal organs: only accumulated in the gut cells
Substance: Rhodamine B
